The entries are a selection whose mix differs from that of the whole data set. Calls of active or inactive are those of the source. Calls come from the whole dose curve; as a rule, active = well fitted activation curve with a large enough effect; inconclusive = small, poorly fitted or top-dose-only effect; inactive = no such curve, though single readings can be large or run the other way.
biological target: Glucagon-like peptide 1 receptor (Homo sapiens) (UniProt P43220); assay: qHTS of GLP-1 Receptor Agonists; settings: HEK293 GLP-1R CRE-luciferase, luminescence, 4-6 h, cells express a hypersensitive GLP-1R form; at 45.6 µM (top of the series); note: % of control where 0% means no effect
Source text: The overall goal of this project was to develop a novel assay for discovering small molecule ligands for class B1 G protein-coupled receptors (GPCRs). Very few agonists (or inverse agonists) with generally weak activity for this entire group of physiologically important receptors are known to date. To establish proof-of-principle that this critical bottleneck can be overcome with a suitable screening approach, our studies focused on the class B1 receptor for glucagon-like peptide-1 (GLP-1R), a potential therapeutic target for diabetes and neurodegenerative disease.
The assay was developed in a "mix and measure" format using a cell-based functional readout. Toward this goal, stably transfected HEK293 cell clones were established that co-express (i) a cAMP-responsive luciferase reporter gene, and (ii) GLP-1Rs that upon ligand interaction either stimulate (agonists) or inhibit (inverse agonists) luciferase activity. In different cell lines to be used for screening, expressed GLP-1Rs are specifically optimized for high sensitivity detection of either weak agonists (hypersensitive receptor) or inverse agonists (constitutively active receptor mutant). In addition, control cell lines were developed that express either the cAMP-responsive reporter gene without recombinant GLP-1Rs (enabling initial exclusion of GLP-1R independent effects of candidate probes), or the reporter gene together with wild type GLP-1Rs (for confirmation of probe activity at this receptor), or the reporter gene in combination with the constitutively active orphan receptor GPR119 (enabling initial exclusion of GLP-1R independent inhibitory effects of candidate inverse agonists).
To that end, this assay was optimized for 1536-well format and screened against the MLSMR.
NIH Molecular Libraries Probe Production Network [MLPCN]
NIH Chemical Genomics Center [NCGC]
PI Name: Martin Beinborn, Tufts Medical Center
In a white solid 1536-well plate, 6 uL of cells are dispensed in DMEM without phenol red, 10% Nu serum, and 1% pen-strep medium. The plates are then incubated for 12 hours at 37 deg C at 5% CO2 before 23 nL of compounds are added. After a 4-6 hr incubation at37 deg C and 5% CO2, 3 uL of detection reagent are added and after a 12 min incubation at RT, a luminescent read is obtained on the ViewLux.

Sequences of proteins named here, by UniProt entry; tags and fusion partners are left off. A change or cut given only in a name is not applied to a line headed by its entry.
UniProt P43220, whole entry, stated change not applied: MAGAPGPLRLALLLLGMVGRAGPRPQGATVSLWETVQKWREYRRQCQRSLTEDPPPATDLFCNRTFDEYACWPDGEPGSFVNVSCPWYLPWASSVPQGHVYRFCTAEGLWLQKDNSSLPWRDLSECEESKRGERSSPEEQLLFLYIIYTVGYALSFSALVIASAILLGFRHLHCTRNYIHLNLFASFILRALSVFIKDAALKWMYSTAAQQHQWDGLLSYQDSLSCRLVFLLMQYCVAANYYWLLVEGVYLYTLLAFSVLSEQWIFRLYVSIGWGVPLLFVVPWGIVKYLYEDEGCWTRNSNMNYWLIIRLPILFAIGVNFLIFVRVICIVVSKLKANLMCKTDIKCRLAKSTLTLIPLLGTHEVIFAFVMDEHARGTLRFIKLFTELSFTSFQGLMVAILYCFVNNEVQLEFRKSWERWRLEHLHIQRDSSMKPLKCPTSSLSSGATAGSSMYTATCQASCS

| SMILES | activation |
| --- | --- |
| CC(C)(C)OC(=O)N1CCC(Nc2ccccc2)CC1 | inactive: 12.3% |
| O=c1[nH]c2ccccc2n1C1CCN(C(c2cc3ccccc3o2)c2nnnn2C2CCCC2)CC1 (stereo not given) | inactive: -3.4% |
| CCCOc1ccc(C(=O)NCC2(N(C)C)CCCCC2)cc1 | inactive: -1.63% |
| COc1cc(C(=O)NCC2(N3CCOCC3)CCCCC2)cc(OC)c1OC | inactive: 4.74% |
| COc1cc(OC)cc(C(=O)NCC2(N3CCOCC3)CCCCC2)c1 | inactive: 3.18% |
| COc1cccc(C(c2nnnn2C2CCCC2)N2CCC(n3c(=O)[nH]c4ccccc43)CC2)c1OC (stereo not given) | inactive: 1.69% |
| COc1cccc(C(=O)N(c2cc(C)cc(C)c2)C2CCN(C(=O)OC(C)(C)C)CC2)c1 | inactive: 5.93% |
| CCC(CO)(C(=O)OC1CN2CCC1CC2)c1ccccc1 (stereo not given) | inactive: 0.581% |
| CN1CCC(Nc2ccc(Cl)cc2)CC1 | inactive: 5.23% |
| COc1cc(C(=O)NCC2(N3CCOCC3)CCCCC2)cc(OC)c1C | inactive: 24.4% |
| CCCCn1nnnc1C(c1ccccc1)N1CCC(n2c(=O)[nH]c3ccccc32)CC1 (stereo not given) | inactive: 5.86% |
| O=C(NCC1(N2CCOCC2)CCCCC1)c1cc(Br)ccc1Cl | inactive: -0.0839% |
| O=c1[nH]c2ccccc2n1C1CCN(C(c2cccs2)c2nnnn2C2CCCCC2)CC1 (stereo not given) | inactive: 0.138% |
| O=c1[nH]c2ccccc2n1C1CCN(C(c2ccnc3ccccc23)c2nnnn2C2CCCC2)CC1 (stereo not given) | inactive: 20.7% |
| COc1ccc(C(=O)NCC2(N3CCOCC3)CCCCC2)cc1OC | inactive: -0.182% |
| CCOC(=O)N1CCC(Nc2ccc(C)cc2)CC1 | inactive: -6.2% |
| COc1cccc(C(c2nnnn2C(C)(C)C)N2CCC(n3c(=O)[nH]c4ccccc43)CC2)c1OC (stereo not given) | inactive: 0% |
| N/C(=N\O)c1c(N)no[n+]1[O-] | inactive: -6.83% |

| SMILES | activation |
| --- | --- |
| O=c1[nH]c2ccccc2n1C1CCN(C(c2cccs2)c2nnnn2C2CCCC2)CC1 (stereo not given) | inactive: -1.43% |
| O=C(O)c1cccc(Nc2c([N+](=O)[O-])cc([N+](=O)[O-])cc2[N+](=O)[O-])c1 | inactive: -1.26% |
| CCc1cc(C(=O)NCC2(N3CCCCC3)CCCCC2)sc1C | inactive: 12.4% |
| O=C(OC1CN2CCC1CC2)C1c2ccccc2C=Cc2ccccc21 (stereo not given) | inactive: -4.18% |
| CCCCn1nnnc1C(c1cccc(OC)c1OC)N1CCC(n2c(=O)[nH]c3ccccc32)CC1 (stereo not given) | inactive: -3.41% |
| N#Cc1ccc(C(=O)NCC2(N3CCCCC3)CCCCC2)cc1 | inactive: 2.28% |
| O=C(NCC1(N2CCOCC2)CCCCC1)c1ccccc1[N+](=O)[O-] | inactive: -8.62% |
| CC(C)(C)OC(=O)N1CCC(N(C(=O)c2ccccc2)c2ccc(Cl)cc2)CC1 | inactive: 0.324% |
| O=C(NCC1(N2CCOCC2)CCCCC1)c1ccc([N+](=O)[O-])cc1 | inactive: -1.85% |
| CCOC(=O)C(CC)C1=NC(C)(C)Cc2ccccc21.O=[N+]([O-])c1cc([N+](=O)[O-])c(O)c([N+](=O)[O-])c1 (stereo not given) | inactive: -1.02% |
| CN(C)C1(CNC(=O)c2cccc(C#N)c2)CCCCC1 | inactive: 1.95% |
| O=c1[nH]c2ccccc2n1C1CCN(C(c2ccccc2)c2nnnn2C2CCCC2)CC1 (stereo not given) | inactive: 6.29% |
| CCCN1CCC(Nc2cc(OC)cc(OC)c2)CC1 | inactive: -3.35% |
| O=C(NCC1(N2CCOCC2)CCCCC1)c1ccccc1 | inactive: 4.2% |
| Cc1cc(N(CCCl)CCCl)ccc1C=O | inactive: 9.97% |
| c1ccc(CN2CCC(Nc3ccccc3)CC2)cc1 | inactive: -6.18% |
| CC(C)(C)n1nnnc1C(c1cccc2ccccc12)N1CCC(n2c(=O)[nH]c3ccccc32)CC1 (stereo not given) | inactive: -0.679% |
